The record followed here is PMC8927147, “Global profiling of regulatory elements in the histone benzoylation pathway” (Nature Communications, 2022).

This test has as its target T1, H3K9bz peptide.
T1 chain: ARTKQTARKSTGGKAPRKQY
The experiment in a line: ITC. To be noted: chain shown with the change.

B1: Hst2, P53686 D68A; D70A (protein)
chain: MSVSTASTEMSVRKIAAHMKSNPNAKVIFMVGAGISTSCGIPDFRSPGTGLYHNLARLKLPYPEAVFAVAFFQSDPLPFYTLAKELYPGNFRPSKFHYLLKLFQDKDVLKRVYTQNIDTLERQAGVKDDLIIEAHGSFAHCHCIGCGKVYPPQVFKSKLAEHPIKDFVKCDVCGELVKPAIVFFGEDLPDSFSETWLNDSEWLREKITTSGKHPQQPLVIVVGTSLAVYPFASLPEEIPRKVKRVLCNLETVGDFKANKRPTDLIVHQYSDEFAEQLVEELGWQEDFEKILTAQGGMGDNSKEQLLEIVHDLENLSLDQSEHESADKKDKKLQRLNGHDSDEDGASNSSSSQKAAKE
The molecule B1 returned a dissociation constant Kd of 17.9 µM.

B2: Hst2, P53686 H135A (protein)
chain: MSVSTASTEMSVRKIAAHMKSNPNAKVIFMVGAGISTSCGIPDFRSPGTGLYHNLARLKLPYPEAVFDVDFFQSDPLPFYTLAKELYPGNFRPSKFHYLLKLFQDKDVLKRVYTQNIDTLERQAGVKDDLIIEAAGSFAHCHCIGCGKVYPPQVFKSKLAEHPIKDFVKCDVCGELVKPAIVFFGEDLPDSFSETWLNDSEWLREKITTSGKHPQQPLVIVVGTSLAVYPFASLPEEIPRKVKRVLCNLETVGDFKANKRPTDLIVHQYSDEFAEQLVEELGWQEDFEKILTAQGGMGDNSKEQLLEIVHDLENLSLDQSEHESADKKDKKLQRLNGHDSDEDGASNSSSSQKAAKE
With B2, the Kd amounted to 81.3 µM.

B3: Hst2, P53686 I117V (protein)
chain: MSVSTASTEMSVRKIAAHMKSNPNAKVIFMVGAGISTSCGIPDFRSPGTGLYHNLARLKLPYPEAVFDVDFFQSDPLPFYTLAKELYPGNFRPSKFHYLLKLFQDKDVLKRVYTQNVDTLERQAGVKDDLIIEAHGSFAHCHCIGCGKVYPPQVFKSKLAEHPIKDFVKCDVCGELVKPAIVFFGEDLPDSFSETWLNDSEWLREKITTSGKHPQQPLVIVVGTSLAVYPFASLPEEIPRKVKRVLCNLETVGDFKANKRPTDLIVHQYSDEFAEQLVEELGWQEDFEKILTAQGGMGDNSKEQLLEIVHDLENLSLDQSEHESADKKDKKLQRLNGHDSDEDGASNSSSSQKAAKE
The molecule B3 returned a Kd of 0.51 µM. This Kd is about 160-fold lower than that of the molecule before.

B4: Hst2, P53686 I117F (protein)
chain: MSVSTASTEMSVRKIAAHMKSNPNAKVIFMVGAGISTSCGIPDFRSPGTGLYHNLARLKLPYPEAVFDVDFFQSDPLPFYTLAKELYPGNFRPSKFHYLLKLFQDKDVLKRVYTQNFDTLERQAGVKDDLIIEAHGSFAHCHCIGCGKVYPPQVFKSKLAEHPIKDFVKCDVCGELVKPAIVFFGEDLPDSFSETWLNDSEWLREKITTSGKHPQQPLVIVVGTSLAVYPFASLPEEIPRKVKRVLCNLETVGDFKANKRPTDLIVHQYSDEFAEQLVEELGWQEDFEKILTAQGGMGDNSKEQLLEIVHDLENLSLDQSEHESADKKDKKLQRLNGHDSDEDGASNSSSSQKAAKE
Molecule B4 had a dissociation constant (Kd) of 4.18 µM.

B5: Hst2, P53686 F184A (protein)
chain: MSVSTASTEMSVRKIAAHMKSNPNAKVIFMVGAGISTSCGIPDFRSPGTGLYHNLARLKLPYPEAVFDVDFFQSDPLPFYTLAKELYPGNFRPSKFHYLLKLFQDKDVLKRVYTQNIDTLERQAGVKDDLIIEAHGSFAHCHCIGCGKVYPPQVFKSKLAEHPIKDFVKCDVCGELVKPAIVFAGEDLPDSFSETWLNDSEWLREKITTSGKHPQQPLVIVVGTSLAVYPFASLPEEIPRKVKRVLCNLETVGDFKANKRPTDLIVHQYSDEFAEQLVEELGWQEDFEKILTAQGGMGDNSKEQLLEIVHDLENLSLDQSEHESADKKDKKLQRLNGHDSDEDGASNSSSSQKAAKE
In turn, B5 displayed a dissociation constant Kd of 55.9 µM.

The term Kd denotes the concentration at which binding is half-saturated. High values mean weaker binding, low ones tighter binding.
